This is a selection; strong and weak results do not stand in their true shares. Some results for these compounds are left out of this collection, so the calls shown say nothing about other tests. Calls of active or inactive are those of the source. Rule as the data show it: active = growth inhibition above about 70%; inactive = the rest.
What was measured:
[1] = NCI Yeast Anticancer Drug Screen. Data for the rad50 strain (AID 155);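 also: 0% = growth of vehicle-only cultures of the same strain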; conditions: S. cerevisiae rad50 strain growth inhibition, active compounds read high
[2] = NCI Yeast Anticancer Drug Screen. Data for the mec2-1 strain (AID 157); conditions: S. cerevisiae mec2-1 strain, active compounds read high
[3] = NCI Yeast Anticancer Drug Screen. Data for the sgs1 mgt1 strain (AID 161);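 also: 0% = growth of cultures given vehicle only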; conditions: S. cerevisiae sgs1 mgt1 strain, active compounds read high
[4] = NCI Yeast Anticancer Drug Screen. Data for the cln2 rad14 strain (AID 165);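 also: 0% = growth equal to vehicle treated cultures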; conditions: S. cerevisiae cln2 rad14 strain, active compounds read high
[5] = NCI Yeast Anticancer Drug Screen. Data for the bub3 strain (AID 167); conditions: S. cerevisiae bub3 mutant strain, active compounds read high
[6] = NCI Yeast Anticancer Drug Screen. Data for the mlh1 rad18 strain (AID 175); conditions: S. cerevisiae mlh1 rad18 strain growth inhibition, active compounds read high
[7] = at 5.0 µM (retest, dose inferred, filed as 0.5)
[8] = at 50.0 µM (retest, dose inferred, filed as 5.0)

Measured: growth inhibition

C=C(C)C(O)(C(=O)OC1C2CCN(CC2)C1C)c1ccccc1 (configuration not stated)
inactive: [1]; at 50.0 µM -16.8% | [2]; at 50.0 µM -10.8% | [3]; at 50.0 µM -26.4% | [4]; at 50.0 µM 7.75% | [5]; at 50.0 µM 10.4% | [6]; at 50.0 µM -3.2%

CN(CCBr)CCBr
active: [1]; [7] 99% | [1]; [8] 100% | [1]; at 50.0 µM 85% | [2]; [7] 100% | [2]; [8] 100% | [2]; at 50.0 µM 88.2% | [3]; [7] 99% | [3]; [8] 100% | [3]; at 50.0 µM 91.5% | [4]; [7] 98% | [4]; [8] 99% | [4]; at 50.0 µM 90.9% | [5]; [7] 99% | [5]; [8] 100% | [5]; at 50.0 µM 92.2% | [6]; [7] 99% | [6]; [8] 100% | [6]; at 50.0 µM 93.4%

C/C=C\C(O)(C(=O)OC1CN2CCC1CC2)C1CCCCC1 (configuration not stated)
inactive: [1]; at 50.0 µM 50.8% | [2]; at 50.0 µM 31% | [3]; at 50.0 µM 51% | [4]; at 50.0 µM 35.6% | [5]; at 50.0 µM 41.8% | [6]; at 50.0 µM 56.6%

Cc1cc(C)c(O)c(CN(CC(C)Cl)CC(C)Cl)c1 (configuration not stated)
inactive: [1]; at 50.0 µM 10.5% | [2]; at 50.0 µM 18.1% | [3]; at 50.0 µM 11.1% | [4]; at 50.0 µM 8.1% | [5]; at 50.0 µM -1.85% | [6]; at 50.0 µM 5.3%

CCCCCN(CCCl)CCCl
inactive: [1]; at 50.0 µM -11.4% | [2]; at 50.0 µM 3.7% | [3]; at 50.0 µM -5.95% | [4]; at 50.0 µM -37.4% | [5]; at 50.0 µM 1.4% | [6]; at 50.0 µM 30.2%

CCCCCC#CC(O)(C(=O)OC1CCN(C)CC1)c1ccccc1 (configuration not stated)
inactive: [1]; at 50.0 µM 8% | [2]; at 50.0 µM 7.4% | [3]; at 50.0 µM 4.1% | [4]; at 50.0 µM -9.7% | [5]; at 50.0 µM 6.55% | [6]; at 50.0 µM -4.85%

CCNCCCl
inactive: [1]; at 50.0 µM 5.35% | [2]; at 50.0 µM 3.4% | [3]; at 50.0 µM 3.7% | [4]; at 50.0 µM 13.6% | [5]; at 50.0 µM 22.4% | [6]; at 50.0 µM -12.1%

CC#CC(O)(C(=O)OC1CCN(C)CC1)c1ccccn1 (configuration not stated)
inactive: [1]; at 50.0 µM 16.9% | [2]; at 50.0 µM 6.9% | [3]; at 50.0 µM 1.35% | [4]; at 50.0 µM 16.7% | [5]; at 50.0 µM 22.3% | [6]; at 50.0 µM 35.7%

CC(COC(=O)C(O)(c1ccccc1)c1ccccc1)N(C1CCCC1)C1CCCC1 (configuration not stated)
inactive: [1]; at 50.0 µM -8.3% | [2]; at 50.0 µM -0.4% | [3]; at 50.0 µM -19.6% | [4]; at 50.0 µM -31.7% | [5]; at 50.0 µM 3.5% | [6]; at 50.0 µM -9.65%

O=C(OC1CN2CCC1CC2)C(c1ccccc1)C1(O)CCCC1 (configuration not stated)
inactive: [1]; at 50.0 µM -14.8% | [2]; at 50.0 µM 4.35% | [3]; at 50.0 µM -10.7% | [4]; at 50.0 µM -15.8% | [5]; at 50.0 µM -2.65% | [6]; at 50.0 µM -15.6%

CN1CCC(OC(=O)C(O)(C#Cc2ccccc2)c2ccccc2)CC1 (configuration not stated)
inactive: [1]; at 50.0 µM -8.9% | [2]; at 50.0 µM -13.3% | [3]; at 50.0 µM -16.1% | [4]; at 50.0 µM -1.8% | [5]; at 50.0 µM -11.2% | [6]; at 50.0 µM -27.8%

C=C(C)C#CC(O)(C(=O)OC1CN2CCC1CC2)C(C)C (configuration not stated)
inactive: [1]; at 50.0 µM -24.9% | [2]; at 50.0 µM -25.7% | [3]; at 50.0 µM -13.3% | [4]; at 50.0 µM -11.9% | [5]; at 50.0 µM -32.5% | [6]; at 50.0 µM -54.2%

C=C(C)C#CC(O)(C(=O)OC1CN2CCC1CC2)C1CCCCC1 (configuration not stated)
inactive: [1]; at 50.0 µM 28.2% | [2]; at 50.0 µM 4.15% | [3]; at 50.0 µM 12.2% | [4]; at 50.0 µM 9.05% | [5]; at 50.0 µM 12.7% | [6]; at 50.0 µM 11.9%

O=C(OCCN1C2CCCC1CCC2)C(O)(c1ccccc1)c1ccccc1
inactive: [1]; at 50.0 µM -61.5% | [2]; at 50.0 µM -4.8% | [3]; at 50.0 µM -7.1% | [4]; at 50.0 µM -0.05% | [5]; at 50.0 µM 19.8% | [6]; at 50.0 µM -12.8%

O=C(CBr)c1ccc(Cl)cc1
inactive: [1]; at 50.0 µM 36.4% | [2]; at 50.0 µM 10.6% | [3]; at 50.0 µM 23.4% | [4]; at 50.0 µM 21.3% | [5]; at 50.0 µM 31.6% | [6]; at 50.0 µM 44.2%

CCC#CC(O)(C(=O)OC1CN2CCC1CC2)C1CCCC1 (configuration not stated)
inactive: [1]; at 50.0 µM 35.4% | [2]; at 50.0 µM 30.4% | [3]; at 50.0 µM 49.6% | [4]; at 50.0 µM 35.5% | [5]; at 50.0 µM 40.2% | [6]; at 50.0 µM 46.3%

N#CC(C#N)=Cc1ccccc1
inactive: [1]; at 50.0 µM 7.1% | [2]; at 50.0 µM -11.4% | [3]; at 50.0 µM 11.4% | [4]; at 50.0 µM -16.6% | [5]; at 50.0 µM 6.9% | [6]; at 50.0 µM 10.1%

Cc1cccc(C(O)(C(=O)OCCN2CCCCC2)c2cccc(C)c2)c1
inactive: [1]; at 50.0 µM 16.9% | [2]; at 50.0 µM 13.5% | [3]; at 50.0 µM 23.9% | [4]; at 50.0 µM 5.4% | [5]; at 50.0 µM 23.1% | [6]; at 50.0 µM 17.6%

CC#CC(O)(C(=O)OC1CCN(C)CC1)C(C)C (configuration not stated)
inactive: [1]; at 50.0 µM 22.8% | [2]; at 50.0 µM 2.8% | [3]; at 50.0 µM 0.05% | [4]; at 50.0 µM 3.1% | [5]; at 50.0 µM 12.1% | [6]; at 50.0 µM 20.3%

CC/C=C\C(O)(C(=O)OC1CN2CCC1CC2)C1CCCC1 (configuration not stated)
inactive: [1]; at 50.0 µM 47.4% | [2]; at 50.0 µM 37.6% | [3]; at 50.0 µM 60.5% | [4]; at 50.0 µM 41.1% | [5]; at 50.0 µM 42.1% | [6]; at 50.0 µM 27.8%

Source: PubChem BioAssay (NCI)
